Screening data from PubChem BioAssay.
Hits are enriched below; roughly 2.2% of the tested compounds scored in any of these assays.
FGF22 binding: binders of recombinant human FGF22 by thermal shift | Q9HCT0 | SYPRO orange fluorescence; percent of sucrose octasulfate shift, DMSO zero | activity (Tm shift, normalised), % at 9.99 µM | 340,000 tested, 1.5% active;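 active means mean Tm shift, scaled 0 neutral to 100 positive control, at about 1.3% or above, every replicate too, limit read from the data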
Yeast UUG start: yeast start codon fidelity modulation; AID 602363; activity score, % at 18.7 µM; S. cerevisiae UUG-firefly luciferase reporter, luminescence/redox ratio; 0.13% of 350,000 active;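 active means replicate mean at a twofold rise or more, about +100% in these data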;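 further: firefly luciferase made from a UUG start codon reports start codon fidelity; reporter light over untreated wells divided by growth signal over untreated wells; some hits fall short of that in this replicate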
ERp5 inh: ERp5 (human) disulfide isomerase inhibition | Q15084 | ERp5 insulin aggregation, absorbance 650 nm, 90 min | inhibition, % at 9.99 µM | 350,000 tested, 0.05% active | AID 651711;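 active means mean replicate inhibition above about 25%, with every replicate also reaching it, limit read from the data, passing the limit was not always enough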
S100A4 MyoIIA: blocks human S100A4 binding to myosin IIA peptide; P26447; S100A4/TAMRA-MyoIIA peptide fluorescence polarization; inhibition, % at 10.7 µM; 360,000 tested, 0.14% active; AID 652163;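 active means mean inhibition of at least 70% across replicates, with every replicate also reaching that level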
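incubation = readout 5 min after mixing, signal stable up to 60 min | system = S100A4 monomer protein | buffer or medium = HEPES pH 7.2 with CaCl2, KCl, NaCl, DTT, Triton | benchmarks = neutral control DMSO, positive control TFP | also added = fluorescent myosin IIA peptide, 5 nM | compound dosing = one concentration per compound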
SIRT5 inh: blocks human SIRT5 desuccinylation of peptide; inhibition, % at 15 µM; Purified SirT5, succinyl-peptide AMC, trypsin-coupled fluorescence; AID 652115; Q9NXA8; 330,000 tested, 1.1% active; in the data active means inhibition above about 15%
PDI inh: PDI (human) enzyme inhibition | P07237 | PDI insulin aggregation turbidity, A650, 90 min | inhibition, % at 10 µM | 350,000 tested, 0.052% active | AID 588391;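 active means mean inhibition across replicates of 30% or more, whatever share of single replicates reach that level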
Active calls of the source: *; / = no result; ! = not confirmed by another sample.

| molecule | FGF22 binding | Yeast UUG start | ERp5 inh | S100A4 MyoIIA | SIRT5 inh | PDI inh |
| --- | --- | --- | --- | --- | --- | --- |
| O=C(c1ccc(OC2CCN(Cc3ccccn3)CC2)cc1)N1CCCCO1 | 43* | 3 | -2 | -2 | -5 | 9 |
| COc1cccc(S(=O)(=O)N[C@H]2CC[C@@H](CCn3cc(-c4ccccn4)nn3)O[C@H]2CO)c1 | 0 | -27 | -4 | 13 | 2 | / |
| C[C@@H]1CCCCO[C@@H](CN(C)C(=O)Nc2ccc(C(F)(F)F)cc2)[C@H](C)CN([C@H](C)CO)C(=O)c2cc(NS(=O)(=O)c3cccs3)ccc2O1 | 0 | 3 | -3 | -7 | 0 | / |
| C[C@H]1CN([C@@H](C)CO)S(=O)(=O)c2ccc(C#Cc3cccc(F)c3)cc2O[C@@H]1CN(C)S(=O)(=O)c1ccccc1F | 0 | -11 | -2 | 4 | 13 | / |
| COc1ccc(C#Cc2ccc3c(c2)O[C@H](CN(C)S(=O)(=O)c2ccccc2F)[C@H](C)CN([C@H](C)CO)S3(=O)=O)cc1 | 0 | -10 | 2 | -7 | 16*! | / |
| C[C@H]1CN([C@@H](C)CO)S(=O)(=O)c2ccc(C#Cc3cccc(F)c3)cc2O[C@H]1CN(C)S(=O)(=O)c1ccccc1F | 0 | -13 | 12 | -4 | 42* | / |
| Cc1cc(C)n2nc(C(=O)Nc3ccc4c(c3)CCC4)nc2n1 | 0 | -13 | 3 | -3 | 15* | 1 |
| N#C/C(=C\c1ccc(O)c(Br)c1)C(=O)NCc1ccccc1 | / | / | -10 | 0 | -2 | 3 |
| COc1ccc(/C=C(\C#N)C(=O)OCC(=O)NCc2ccccc2)cc1 | 34* | -16 | -6 | -1 | -2 | 9 |
| COc1ccc(/C=C(\C#N)C(=O)OCC(=O)NC2CC2)cc1 | 44* | / | 4 | -4 | -6 | -5 |
| COc1ccc(/C=C(\C#N)C(=O)OCC(=O)Nc2c(C)cccc2C)cc1 | 0 | / | -5 | -2 | 9 | -11 |
| N#C/C(=C/c1ccccc1)C(=O)NCc1ccccc1 | 44* | -14 | -8 | -9 | 1 | -3 |
| CCN1[C@@H]2c3ccc(-c4cccc(F)c4)c(=O)n3C[C@@H]2[C@@H](CO)[C@@H]1C(=O)OC | / | / | -6 | 0 | 3 | / |
| C[C@@H]1CCCCO[C@@H](CN(C)C(=O)Nc2cccc3ccccc23)[C@H](C)CN([C@H](C)CO)C(=O)c2cc(NC(=O)Cc3ccccc3)ccc2O1 | -1 | 1 | 5 | 7 | 8 | / |
| CNC(=O)C[C@H]1CC[C@@H]2[C@@H](COc3ccc(NC(=O)c4ccc5c(c4)OCO5)cc3C(=O)N2C)O1 | 0 | 3 | / | / | / | / |

Compound profiles, from the list above. Order of values: FGF22 binding, Yeast UUG start, ERp5 inh, S100A4 MyoIIA, SIRT5 inh, PDI inh
Results for `C[C@H]1CN([C@@H](C)CO)S(=O)(=O)c2ccc(C#Cc3cccc(F)c3)cc2O[C@@H]1CN(C)S(=O)(=O)c1ccccc1F` → 0, -11, -2, 4, 13, /
Results for `COc1ccc(/C=C(\C#N)C(=O)OCC(=O)Nc2c(C)cccc2C)cc1` → 0, /, -5, -2, 9, -11
Results for `COc1ccc(/C=C(\C#N)C(=O)OCC(=O)NC2CC2)cc1` → 44*, /, 4, -4, -6, -5
Results for `CNC(=O)C[C@H]1CC[C@@H]2[C@@H](COc3ccc(NC(=O)c4ccc5c(c4)OCO5)cc3C(=O)N2C)O1` → 0, 3, /, /, /, /

(further entries)
| molecule | FGF22 binding | Yeast UUG start | ERp5 inh | S100A4 MyoIIA | SIRT5 inh | PDI inh |
| --- | --- | --- | --- | --- | --- | --- |
| COC(=O)c1ccc(CSc2nc3sc(C(=O)O)c(C)c3c(=O)[nH]2)cc1 | 0 | / | 1 | 2 | 6 | / |
| Cc1sc2nc(SCC(=O)N3CCOCC3)[nH]c(=O)c2c1C | 0 | -14 | 2 | 31 | -1 | 17 |
| CCOC(=O)c1ccc(NC(=O)CSc2nc3sc(C(=O)O)c(C)c3c(=O)[nH]2)cc1 | 43* | / | 0 | 5 | 5 | 3 |
| Cc1sc2nc(SCC(=O)O)[nH]c(=O)c2c1C | 43* | / | 0 | 1 | -3 | 2 |
| COCCCNc1c2c3c(cccc3[nH]c1=O)C(=O)c1ccccc1-2 | 0 | -48 | -1 | 127* | 5 | 6 |
| C[C@@H]1CN([C@@H](C)CO)C(=O)Cc2cc(NC(=O)Cc3ccccc3)ccc2O[C@@H]1CN(C)C(=O)Nc1ccc(C(F)(F)F)cc1 | 0 | -1 | 37* | -38 | 4 | / |
| C[C@@H]1CN([C@@H](C)CO)C(=O)Cc2cc(NS(=O)(=O)c3cccs3)ccc2O[C@H]1CN(C)C(=O)Nc1ccc(C(F)(F)F)cc1 | 0 | 6 | 47* | -1 | 7 | / |
| C[C@@H]1CN([C@@H](C)CO)C(=O)Cc2cc(NS(=O)(=O)c3cccs3)ccc2O[C@H]1CN(C)Cc1ccc(-c2ccccc2)cc1 | 0 | -7 | -6 | 48 | 17* | / |
| C[C@H](CO)N1C[C@H](C)[C@H](CN(C)C(=O)Nc2ccc(C(F)(F)F)cc2)Oc2ccc(NS(=O)(=O)c3cccs3)cc2CC1=O | 0 | -20 | 16 | -8 | 3 | / |
| C[C@@H]1CN([C@@H](C)CO)C(=O)Cc2cc(NS(=O)(=O)c3cccs3)ccc2O[C@H]1CN(C)Cc1ccc(C(F)(F)F)cc1 | 0 | -9 | -2 | -7 | 16* | / |
| C[C@@H]1CN([C@@H](C)CO)C(=O)Cc2cc(NC(=O)Cc3ccccc3)ccc2O[C@H]1CN(C)C(=O)Nc1ccc(C(F)(F)F)cc1 | -1 | 51 | -2 | 1 | -2 | / |
| C[C@@H]1CN([C@H](C)CO)C(=O)Cc2cc(NS(=O)(=O)c3cccs3)ccc2O[C@H]1CN(C)Cc1ccc(-c2ccccc2)cc1 | 0 | 9 | -4 | 9 | 9 | / |
| O=C(CN1CCOCC1)NCC[C@@H]1CC[C@@H](NC(=O)Nc2ccc(F)cc2)[C@@H](CO)O1 | 1 | -10 | -6 | 2 | 9 | / |
| Cn1cnc(S(=O)(=O)N2CC[C@@H]3[C@@H](CO)Nc4ccc(-c5ccccc5F)cc4[C@@H]32)c1 | 0 | -5 | / | / | / | / |
| COc1cc2c(cc1OC)C(c1cccc(Cl)c1)CC(=O)N2 (stereo unspecified) | 0 | 8 | 1 | -3 | 1 | 7 |

(list continues)
Keys: A = FGF22 binding; B = Yeast UUG start; C = ERp5 inh; D = S100A4 MyoIIA; E = SIRT5 inh; F = PDI inh
COc1cc2c(cc1OC)C(c1ccc(Cl)cc1)CC(=O)N2 (stereo unspecified)
  A = 0 | B = -13 | C = 3 | D = -4 | E = 17* | F = 5

COCCNC(=O)C[C@@H]1CC[C@@H]2[C@@H](COc3ccc(NC(C)=O)cc3C(=O)N2C)O1
  A = 0 | B = -10 | C = / | D = / | E = / | F = /

NNC(=O)Nc1cccc(C(F)(F)F)c1
  A = 43 | B = -4 | C = 1 | D = 2 | E = 41* | F = -5

CN(CC(=O)Nc1ccc(S(N)(=O)=O)cc1)Cc1ccccc1F
  A = 42 | B = / | C = -3 | D = 14 | E = 21* | F = 7

CN(CC(=O)NC(=O)Nc1ccccc1F)Cc1ccccc1F
  A = 0 | B = -19 | C = 0 | D = 0 | E = / | F = 5

S=c1[nH]nc(COc2ccccc2)n1/N=C/c1ccncc1
  A = 43* | B = -8 | C = 2 | D = -5 | E = 0 | F = -6

CC(C)NC(=O)Nc1ccc2c(c1)C(=O)N([C@@H](C)CO)C[C@@H](C)[C@@H](CN(C)CC1CCCCC1)OCCCC[C@H](C)O2
  A = 0 | B = / | C = 4 | D = 12 | E = 1 | F = /

Cc1cc(C)n2nc(C)c(Br)c2n1
  A = 44* | B = 5 | C = -1 | D = -3 | E = 1 | F = -5

O=C(Nc1ccccc1)n1cc(-c2ccccn2)c(N2CCOCC2)n1
  A = 44* | B = / | C = 0 | D = -1 | E = 1 | F = 0

O=C(Nc1ccc(Nc2ccccc2)cc1)N1CCOCC1
  A = / | B = -20 | C = / | D = / | E = / | F = 8

C[C@H]1CCCCO[C@@H](CN(C)Cc2ccc(C(F)(F)F)cc2)[C@@H](C)CN([C@@H](C)CO)C(=O)c2cc(NS(=O)(=O)c3ccccc3)ccc2O1
  A = / | B = -1 | C = -4 | D = -7 | E = 12 | F = /
